## Antibody variant affinities, Ab-95 light chain, assay 2

All variants were tested on one target, the spike HR2 peptide PDVDLGDISGINAS (SARS-CoV-2).

The variants keep the heavy chain, the linker and the frameworks of Ab-95 (scFv order VH, three GGGGS repeats, VL).
VH: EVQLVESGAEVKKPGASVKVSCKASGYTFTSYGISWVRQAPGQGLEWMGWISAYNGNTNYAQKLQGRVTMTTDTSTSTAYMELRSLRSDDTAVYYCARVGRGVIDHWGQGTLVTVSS
VL: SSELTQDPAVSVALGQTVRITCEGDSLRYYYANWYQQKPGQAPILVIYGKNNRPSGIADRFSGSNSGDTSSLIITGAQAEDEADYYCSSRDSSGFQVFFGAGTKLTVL

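The starting antibody came from a phage panning campaign against this peptide. The library (AAYL52) carries one to three amino acid substitutions per variant, with no insertions or deletions. In AlphaSeq, yeast of one mating type display the scFv and yeast of the other type display the target. Pairs that bind mate more often; barcode pairs of the diploids are counted by sequencing. A regression on co-assayed BCL2-family reference pairs converts the normalised counts of each replicate to an apparent Kd. Mating was done three times.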

Each variant is given by its three light chain CDRs, as the data file delimits them; those of the parent are EGDSLRYYYAN, GKNNRPS, SSRDSSGFQVF.
Every variant below is changed at Y30 of the VL (sequential numbering).
The read-out is the apparent dissociation constant on a log10 scale (nM): the lower, the stronger.
A mean of the replicates is given; it leaves out those without a signal.
Where no diploid with the target was found in any replicate, the entry reads "no signal": below detection, most likely a poor binder, though not proof of it.
In this assay the parent's reference entry averaged 2.31; its copy inside this library read 2.25.
As a blank, each scFv also met three strains without target: over library AAYL52, 28% of these pairings were detected, typically at 3.91 and seldom below 2.90.

Variant EGDGLRYCYAN / GKNNRPS / QSRDSSGFQVF gave 3.75 (2 of 3 replicates).
Variant EGDALRYSYAN / GKNNRPS / SSRSSSGFQVF gave 0.70 (3 of 3 replicates).
Variant EGDSLRYRYAN / GKNNRPD / SSRDSSGFQVF gave 3.31 (3 of 3 replicates).
Variant EGDSLRYKYAN / GKNNRPK / SSRDSSGTQVF gave 3.27 (2 of 3 replicates).
Variant EGDSLRYPYAN / GKNNRPS / SSRLSSLFQVF gave 3.14 (2 of 3 replicates).
Variant EADSLQYQYAN / GKNNRPS / SSRDSSGFQVF gave 1.16 (3 of 3 replicates).
Variant EGDSLRYTYAN / GKNNRPR / SRRDSSGFQVF gave 1.97 (3 of 3 replicates).
Variant EGDILRDRYAN / GKNNRPS / SSRDSSGFQVF gave 1.05 (3 of 3 replicates).
Variant EGDFLRYVYAN / GKGNRPS / SSRDSSGFQVF gave 2.76 (3 of 3 replicates).
Variant EGDSLRYQNAN / GKNNRPS / SSRDASGFQVF gave 0.28 (3 of 3 replicates).
Variant EGDSLRYNYVN / GKNNRPS / SSRDSSGFQVL gave 1.21 (3 of 3 replicates).
Variant EGDSLRYHYAN / GKDNRPS / SSRDSSGFQVF gave 1.07 (3 of 3 replicates).
Variant EGDSLRYCYAN / WKNNRPS / SSRDSSGGQVF gave 5.70 (1 of 3 replicates).
Variant EGDSLRYMYAN / GKNNRPS / SSRCSLGFQVF gave 2.88 (2 of 3 replicates).
Variant EGDSLRYMYAN / GKNNRPS / SSRDSSGFQQL gave no signal (0 of 3 replicates).
Variant EGDCLRYLYAN / GKNNRPS / SSRDSSGFGVF gave 4.99 (1 of 3 replicates).
Variant EGDSLRYRYAN / GKNNRPS / LSRDSSGFQVF gave 2.68 (3 of 3 replicates).
Variant EGDSLRYHYAN / GKNNRPY / SSRDSSGFGVF gave 2.19 (3 of 3 replicates).
Variant EYDSLRYKYAN / GKNNRKS / SSRDSSGFQVF gave 3.38 (1 of 3 replicates).
Variant EFDSLRYEYAN / GKNNRPS / SCRDSSGFQVF gave 1.89 (3 of 3 replicates).
Variant EGDSRRYTYAN / GKHNRPS / SSRDSSGFQVF gave no signal (0 of 3 replicates).
Variant EGDSLWYDYAN / GKNNRPS / SSKDSSGFQVF gave 3.73 (1 of 3 replicates).
Variant EGDGLRYSYAN / GKNNRPS / SSRDSSGFQVF gave 1.34 (3 of 3 replicates).
Variant NGDSLRYRYAN / GKNNRPS / SSRLSSGFQVF gave no signal (0 of 3 replicates).
Variant EVDSLRYTYAN / FKNNRPS / SSRDSSGFQVF gave no signal (0 of 3 replicates).
Variant EGDSLRYIYAN / GKNNRPS / SSRDSSTVQVF gave 4.24 (2 of 3 replicates).
Variant EGMSLRYVYAI / GKNNRPS / SSRDSSGFQVF gave 3.10 (3 of 3 replicates).
Variant EGDSNRYHYAN / GKNNRPS / SSRHSSGFQVF gave 2.30 (3 of 3 replicates).
Variant EGDSLRYTYAN / GKNNRPS / SSRDSSGFQVF gave 0.73 (3 of 3 replicates).
Variant EGDSLRYDYAF / GKNNRPS / SERDSSGFQVF gave 5.02 (1 of 3 replicates).
Variant EGDSLRYMYAN / WKNNRPS / SSRDSSGFQMF gave 2.77 (1 of 3 replicates).
Variant EGDSLRYTYAN / GKNNIPS / SSRDSSGFQVF gave 1.22 (3 of 3 replicates).
Variant WGDSLRYTYAN / GKWNRPS / SSRDSSGFQVF gave 3.17 (3 of 3 replicates).
Variant EGLSLRYMYAN / GKNNRPS / WSRDSSGFQVF gave 2.32 (3 of 3 replicates).
Variant EGDSLRYLYAN / GKNNFPS / SSRRSSGFQVF gave 4.68 (2 of 3 replicates).
Variant EGDSLRYHYAN / GKNNRPS / NSRDHSGFQVF gave 1.81 (3 of 3 replicates).
Variant EGDSLRYIYAN / GKNNRPS / SSRASSGFQVF gave 2.09 (3 of 3 replicates).
Variant ERDSLRYKYAN / GKNNRPS / SSRDSSGFQSF gave no signal (0 of 3 replicates).
Variant EGDHLRYMYAN / GKNNRPS / SSRDFSGFQVF gave 1.64 (3 of 3 replicates).
Variant EGDSLFYTYAN / GKINRPS / SSRDSSGFQVF gave 3.49 (1 of 3 replicates).
Variant EGDSLRIMYAN / GKNNRPS / SSRDSSTFQVF gave 3.37 (1 of 3 replicates).
Variant EGDSLRYEYAN / GKNNRPS / SSRHSSGFQVF gave 1.75 (3 of 3 replicates).
Variant EGDSLRYMYAN / GKNNRPS / SSRGSSQFQVF gave 1.82 (3 of 3 replicates).
Variant EGDSLHYHWAN / GKNNRPS / SSRDSSGFQVF gave 2.35 (3 of 3 replicates).
Variant EGDSLRYCYRN / GKNNRPS / SSRDSSGHQVF gave no signal (0 of 3 replicates).
Variant EGDSLRYHYAN / EKQNRPS / SSRDSSGFQVF gave 1.29 (3 of 3 replicates).
Variant EGPSLRYEFAN / GKNNRPS / SSRDSSGFQVF gave 1.20 (3 of 3 replicates).
Variant EGDSLRYMYAP / GKNNRPS / SSRDSSIFQVF gave 4.28 (2 of 3 replicates).
Variant EGDSLRYNYAN / GKNNRPS / SSRDSSGFPVF gave 1.96 (3 of 3 replicates).
Variant EGDSLRYHYAN / GKNNRPS / SKRDWSGFQVF gave 2.26 (3 of 3 replicates).

Top 4 of the variants detected in all replicates, tightest first:

{"CDR-L1": "EGDSLRYQNAN", "CDR-L2": "GKNNRPS", "CDR-L3": "SSRDASGFQVF", "mean log10 Kd (nM)": "0.28", "seen in": "3/3"}
{"CDR-L1": "EGDALRYSYAN", "CDR-L2": "GKNNRPS", "CDR-L3": "SSRSSSGFQVF", "mean log10 Kd (nM)": "0.70", "seen in": "3/3"}
{"CDR-L1": "EGDSLRYTYAN", "CDR-L2": "GKNNRPS", "CDR-L3": "SSRDSSGFQVF", "mean log10 Kd (nM)": "0.73", "seen in": "3/3"}
{"CDR-L1": "EGDILRDRYAN", "CDR-L2": "GKNNRPS", "CDR-L3": "SSRDSSGFQVF", "mean log10 Kd (nM)": "1.05", "seen in": "3/3"}

From the AlphaSeq antibody data of Engelhart et al. 2022 (doi:10.1038/s41597-022-01779-4), copy in the FLAb collection.